## Curated experimental data: properties

Values as listed in the OPERA 2.9 repository of K. Mansouri.

Melting points are in °C.
The boiling point refers to atmospheric pressure (760 mmHg), by the definition of the set.
The octanol-water partition coefficient is given as log10; larger values mean a more lipophilic compound.
Water solubility is log10 of mol/L, nominally at 25 °C; higher is more soluble.
Vapor pressures (log10 mmHg) refer to near room temperature, 15 to 30 °C; higher is more volatile.
The unbound fraction in human plasma runs from 0 (all bound) to 1 (all free).
Intrinsic clearance (human, µL/min per 10^6 hepatocytes): higher is faster turnover, and 0 stands for none detected.

Cc1c(Cl)ccc2c1C(=O)OC2=O [4,5-Dichloro-1,3-isobenzofurandione] has melting point 121 °C and BP 329 °C. Clc1cc(Cl)c(Oc2c(Cl)c(Cl)cc(Cl)c2Cl)cc1Cl [2,2',3,4',5,5',6-Heptachlorodiphenyl ether] is reported with melting point 118 °C and water solubility -9.05 (log10 mol/L). COC(C(F)(F)F)C(F)(F)F [2-Methoxy-2H-perfluoropropane] has water solubility -2.114 (log10 mol/L) and vapor pressure 2.432 (log10 mmHg). O=C(OCCOCCOC(=O)c1ccccc1)c1ccccc1 [Diethylene glycol dibenzoate] has logP 3.2 and water solubility -3.938 (log10 mol/L) and vapor pressure -6.87 (log10 mmHg) and intrinsic clearance 843 µL/min/10^6 cells. Listed for O=C1NC(=O)c2cccc3cccc1c23 [1H-Benzo[de]isoquinoline-1,3(2H)-dione]: logP 1.4 and water solubility -4.693 (log10 mol/L). CCCCOC(=O)C(C)OC(=O)CCC (centres undefined) [1-Butoxy-1-oxopropan-2-yl butanoate] is reported with water solubility -2.888 (log10 mol/L) and vapor pressure -1.684 (log10 mmHg). CCC[C@H]1CCO[C@@H](C)S1 [(2R,4S)-2-Methyl-4-propyl-1,3-oxathiane] is reported with logP 3.205 and vapor pressure -0.284 (log10 mmHg).

Listed for OCCC(F)(F)C(F)(F)C(F)(F)C(F)(F)C(F)(F)C(F)(F)C(F)(F)C(F)(F)C(F)(F)C(F)(F)F [10:2 Fluorotelomer alcohol]: BP 228 °C and water solubility -7.395 (log10 mol/L). For CC(=O)O/N=C(\C(=O)Sc1nc2ccccc2s1)c1csc(N)n1 the data give melting point 110 °C and water solubility -6.685 (log10 mol/L). For CC(C)(C)c1cc(CCC(=O)O)ccc1O [3-(3-tert-Butyl-4-hydroxyphenyl)propanoic acid] the data give melting point 67.85 °C and logP 1.04 and water solubility -2.198 (log10 mol/L) and vapor pressure -6.046 (log10 mmHg). For CC(C)(CO)COC(=O)C(C)(C)CO the data give logP 0.858 and water solubility 0.121 (log10 mol/L) and vapor pressure -3.974 (log10 mmHg). NC1CCCCC1N (centres undefined) [1,2-Cyclohexanediamine] is reported with logP -0.46 and vapor pressure -0.437 (log10 mmHg). O=C(O)c1ccccc1P(c1ccccc1)c1ccccc1 [Benzoic acid, 2-(diphenylphosphino)-] is reported with melting point 179.4 °C and logP 2.9 and water solubility -5.691 (log10 mol/L). The entry for O=C1CCCCCN1C(=O)NCCCCCCNC(=O)N1CCCCCC1=O lists melting point 85.55 °C and logP 2.702 and water solubility -3.906 (log10 mol/L) and vapor pressure -9.773 (log10 mmHg).

The entry for CC(O)C(=O)OCC1CC=CCC1 (centres undefined) lists logP 2.3 and vapor pressure -2.216 (log10 mmHg). CC/C=C\CCOC(=O)C/C=C\CC [3-Hexenoic acid, (3Z)-3-hexen-1-yl ester, (3Z)-] has logP 4.01 and water solubility -4.512 (log10 mol/L) and vapor pressure -1.534 (log10 mmHg). CN(C)CCCCCCN(C)C [N,N,N',N'-Tetramethyl-1,6-hexanediamine] has logP 1.99 and vapor pressure -0.91 (log10 mmHg). For CCOC(=O)C(C)=O [Propanoic acid, 2-oxo-, ethyl ester] the data give logP 0.435 and vapor pressure 0.248 (log10 mmHg). Listed for CC1(C)COC(=O)C2CC=CCC2C(=O)OC1 (centres undefined): logP 1.14 and water solubility -3.004 (log10 mol/L) and vapor pressure -6.472 (log10 mmHg). The entry for Clc1ccc(COC(Cn2ccnc2)c2ccc(Cl)cc2Cl)cc1 (centres undefined) [Econazole] lists logP 5.5 and water solubility -5.411 (log10 mol/L). Listed for N[C@@H]1CCc2c(c3ccccc3n2CCC(=O)O)C1: water solubility -2.488 (log10 mol/L) and vapor pressure -8.383 (log10 mmHg).

CCCCCCCC(=O)NCCN(CCO)CCC(=O)O has logP 1.1 and vapor pressure -4.958 (log10 mmHg). The entry for Cc1c(O)c(=O)ccn1C [Deferiprone] lists water solubility -0.888 (log10 mol/L) and fu 0.67. The entry for N[C@H](Cc1cc(I)c(Oc2cc(I)c(O)c(I)c2)c(I)c1)C(=O)O [Dextrothyroxine] lists logP 4 and water solubility -4.937 (log10 mol/L).

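OPERA's authors assembled the values from existing databases and did not measure them anew. The files give a single number for a compound and property, which may rest on several reports. Method and conditions are not stated for these values. Where a salt, mixture or single isomer is drawn, the source does not say that exactly this form was tested. Unmarked limits or estimates from the upstream databases cannot be ruled out.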